From article PMC9764201, “Half-calcified calmodulin promotes basal activity and inactivation of the L-type calcium channel CaV1.2” (The Journal of Biological Chemistry, 2022)

Assays:
[1] = target: fluorescein-labeled CaV1.2 IQ peptide K1662E (rat); assay: fluorescence polarisation; fluorescein-labeled peptides (100 nM) titrated with Ca2/CaM12’ in 20 mM Tris, pH 7.4, 100 mM KCl, 1 mM MgCl2, 1.0 mM CaCl2
[2] = target: CaV1.2 IQ peptide Y1657D (rat); assay: ITC; 27 °C; Ca2/CaM12’ (0.1 or 0.5 mM, injectant) titrated into IQ peptide (10 or 50 μM, 1.5 ml) in the sample cell; 20 mM Tris, pH 7.4, 100 mM KCl, 1 mM CaCl2; 35 injections of 10 μl
[3] = target: CaV1.2 IQ peptide F1658D (rat); assay: as above
[4] = target: CaV1.2 IQ peptide F1658A (rat); assay: as above
[5] = target: CaV1.2 IQ peptide Y1649A (rat); assay: as above
[6] = target: CaV1.2 IQ peptide I1654A (rat); assay: as above

Substance: Ca2/CaM12’ (calmodulin mutant D21A/D23A/D25A/E32Q/D57A/D59A/N61A/E68Q with Ca2+ bound at EF3 and EF4) (from UniProt P0DP33 1-149) (natural protein)
- Kd [1]: < 100 nM
- Kd [2]: 8000 nM
- dH [2]: -5.6 kcal/mol
- stoichiometry N [2]: 0.72
- Kd [3]: 4000 nM
- dH [3]: -5.9 kcal/mol
- stoichiometry N [3]: 0.8
- Kd [4]: 32 nM
- dH [4]: -9.5 kcal/mol
- stoichiometry N [4]: 1
- Kd [5]: 26 nM
- dH [5]: -9.7 kcal/mol
- stoichiometry N [5]: 0.88
- Kd [6]: 60 nM
- dH [6]: -9.2 kcal/mol
- stoichiometry N [6]: 0.89
